Molecular target: the molecule itself
Assay: crystal structure; (NIA)2 complex, 2.75 Å, space group R32; crystals from 100 mM MES pH 6.5, 0.3 M ammonium acetate, 20 mM calcium acetate, 20 mM CaCl2, 19% isopropanol, 12 °C

B1: human ISD11, full length, no tag (natural protein, UniProt Q9HD34 1-91, looked up)
chain: MAASSRAQVLSLYRAMLRESKRFSAYNYRTYAVRRIRDAFRENKNVKDPVEIQTLVNKAKRDLGVIRRQVHIGQLYSTDKLIIENRDMPRT
notes: human ISD11 (LYRM4), full length, plasmid pZM4; also called LYRM4; I of (NIA)2 and (NIAU)2; source: E. coli One Shot BL21 Star (DE3), co-expressed with NFS1, co-purified (Ni-NTA)
B1: binds.

— PMC5668364, “Structure and functional dynamics of the mitochondrial Fe/S cluster synthesis complex” (Nature Communications, 2017)
